# Screening data deposited in PubChem BioAssay by Broad Institute.
# PglD inh: C. jejuni PglD acetyltransferase inhibitors, primary screen, biochemical, DTNB colorimetric, single point; actives 0.098% (n = 360,000); inhibition, % at 12.5 µM; purified PglD enzyme, DTNB colorimetric CoA detection; in the data active means inhibition above about 16%, passing the limit was not always enough
# E-selectin induc: E-selectin induction in HUVECs, primary screen, imaging, HUVEC, immunofluorescence imaging, single point; activation, % at 7.58 µM; actives 0.37% (n = 260,000); P16581; normalized: neutral wells 0, TNF-alpha wells 100;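 active means mean E-selectin-positive cell signal at least 10% of the positive control, reached in at least 60% of replicates, without over 20% cell loss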
#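 Test system – human umbilical vein endothelial cells (HUVEC), E-selectin induction · Input – 3,000 HUVEC seeded per well · Buffer or medium – EGM-2, gelatin · Compound dosing – single-point compound dose · Detection – immunofluorescence imaging · Measure – percent E-selectin-positive cells · Controls – TNF-alpha high, DMSO low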
# Yeast UUG start: modulators of yeast start codon fidelity, primary screen, whole organism, S. cerevisiae, single point, plate reader | AID 602363, 2012 | S. cerevisiae UUG-firefly luciferase reporter, luminescence/redox ratio | activity score, % at 18.7 µM | hit rate 0.13% among 350,000;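 active = replicate mean at a twofold rise or more, about +100% in these data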;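 also: firefly luciferase made from a UUG start codon reports start codon fidelity; reporter light over untreated wells divided by growth signal over untreated wells; some hits fall short of that in this replicate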
# PGC1a acetyl inh: inhibitors of PGC1a acetylation signal, primary screen, cell-based, U2OS, AlphaScreen, inhibitor mode; inhibition, % at 15.6 µM; AlphaScreen anti-acetyl-lysine; with virally co-expressed GCN5 acetyltransferase; actives 0.17% (n = 350,000);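 active means every replicate shows inhibition of at least 40%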;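 further: 0% = neutral control wells and 100% = positive control wells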
# Statin myotox sup: suppressors of statin myotoxicity in C2C12 myotubes, primary screen, cell-based, single point, plate reader. C2C12 myotubes + simvastatin, ATP luminescence, 48 h; scaled: DMSO 0, geranylgeraniol control 100. rescue of ATP level, % at 7.49 µM. actives 0.78% (n = 330,000);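 active means mean ATP rescue above about 67%, or every replicate alone reaching that limit, limit read from the data, passing the limit was not always enough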;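 further: myotubes were challenged with 10 µM simvastatin during compound exposure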
# esBAF inh: Bmi1 luciferase reporter increase in mESCs, primary screen, esBAF inhibitor project, mouse ES cells, Bmi1 luciferase knock-in, single point. AID 602393, 2012. reporter increase, % at 12.5 µM. 24 h; 100% = twice the neutral-well signal. actives 2% (n = 350,000); in the data active means activation above about 40%;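 further: 0% = median of the plate's neutral control wells and 100% = double that signal; a rise in the Bmi1 reporter signal indicates esBAF inhibition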
# * = called active by the depositor; x = no result. In the library only some 2.8% were active in any assay of this set; here they are far more common.
no.	canonical_smiles	PglD inh	PGC1a acetyl inh	E-selectin induc	esBAF inh	Yeast UUG start	Statin myotox sup
1	C(=C/c1nccc2c1[nH]c1ccccc12)/c1ccc2c(c1)OCO2	-1	-18	20	76*	-10	x
2	C(=N\Nc1nc2ccccc2[nH]1)/c1ccc2c(c1)OCO2	x	x	2	x	x	x
3	Cc1sc2ccccc2[n+]1CC(=O)c1ccccc1	0	-7	x	9	-7	5
4	O=C(c1ccccc1)c1c2c(cc3sc4ccccc4[n+]13)-c1cccc3cccc-2c13	-12	-3	179*	x	21	x
5	C[C@H](CO)N1C[C@H](C)[C@H](CN(C)Cc2ccccn2)Oc2ncc(-c3ccccc3)cc2C1=O	1	-1	1	-13	-27	14
6	OC[C@H]1[C@H](c2ccc(Br)cc2)[C@H]2CN(Cc3ccccn3)CCCCN21	3	-7	0	-2	-30	-15

# Reprinted at random: two records from the list, in no set order.
no.	canonical_smiles	PglD inh	PGC1a acetyl inh	E-selectin induc	esBAF inh	Yeast UUG start	Statin myotox sup
6	OC[C@H]1[C@H](c2ccc(Br)cc2)[C@H]2CN(Cc3ccccn3)CCCCN21	3	-7	0	-2	-30	-15
5	C[C@H](CO)N1C[C@H](C)[C@H](CN(C)Cc2ccccn2)Oc2ncc(-c3ccccc3)cc2C1=O	1	-1	1	-13	-27	14
